From PMC12822184, “Targeting E2F8 sensitizes gemcitabine-resistant gallbladder cancer to PARP inhibitors by disrupting RRM2-driven DNA repair” (Journal of Experimental & Clinical Cancer Research : CR, 2025)

Protein sequences, listed by entry. Tags and fused reporters are not part of them. Residues count along the entry.
UniProt A0AVK6, 110-350 limits assumed: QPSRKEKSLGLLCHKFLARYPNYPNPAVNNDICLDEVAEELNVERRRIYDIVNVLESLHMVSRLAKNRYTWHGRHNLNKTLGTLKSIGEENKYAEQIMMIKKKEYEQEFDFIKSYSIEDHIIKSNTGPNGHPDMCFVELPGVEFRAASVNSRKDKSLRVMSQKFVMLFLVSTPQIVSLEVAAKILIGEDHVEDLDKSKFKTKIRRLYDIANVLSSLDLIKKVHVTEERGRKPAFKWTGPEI

Target: E2F8 DNA-binding domain (Homo sapiens, UniProt A0AVK6)
Assay: SPR (Biacore 8K, CM5 amine coupling, steady-state […])
Settings: 20 mM HEPES pH 7.5, 200 mM NaCl, 1% DMSO, 25 °C; protein immobilized

COc1ccccc1OCC(=O)NN=Cc1ccc(OCC(=O)O)c(OCC(=O)O)c1
Kd: 10.5 µM
